Data reported in patent publication US11358960B2, “Pyrazol-3-ones that activate pro-apoptotic BAX” (Dana-Farber Cancer Institute, Inc., priority 2011, dated 2022).

Chains of the proteins cited; added tags and fusions are not shown.
UniProt Q07812, whole entry: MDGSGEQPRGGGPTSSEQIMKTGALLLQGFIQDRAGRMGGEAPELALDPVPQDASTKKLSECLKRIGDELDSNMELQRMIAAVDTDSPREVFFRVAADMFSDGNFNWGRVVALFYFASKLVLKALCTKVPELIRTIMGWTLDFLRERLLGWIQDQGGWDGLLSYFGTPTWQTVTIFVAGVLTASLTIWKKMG

Legend:
[1] = target: recombinant full-length BAX (Homo sapiens, UniProt Q07812); assay: Competitive fluorescence polarization assay: displacement of FITC-BIM SAHB from BAX; format: binding; conditions: read-out: FITC-BIM SAHB Competition IC50, comparative tables of Example 6
leukemia cells = assay: Leukemia cell viability (anti-leukemic activity); conditions: FIGS. 15-17
[2] = system: BCL-XL-dependent leukemia cell line; assay: Caspase 3/7 and cell death in BCL-XL-dependent leukemia cell line
[3] = system: MCL-1 dependent leukemia cell line; assay: Caspase 3/7 and cell death in isogenic MCL-1 dependent leukemia cell line

SMILES	IC50 [1]	other results
CCOc1ccccc1NN=C1C(=O)N(c2nc(-c3ccccc3)c(C)s2)N=C1C	2000 nM	
CC1=NN(c2nc(-c3ccccc3)cs2)C(=O)C1=NNc1ccccc1N1CCNCC1		IC50 ([1]; tested form: HCl): 2700 nM
CC1=NN(c2nc(-c3ccccc3)cs2)C(=O)C1=NNc1ccccc1N1CCN(C(=O)OC(C)(C)C)CC1	1500 nM	
CCOc1ccccc1NN=C1C(=O)N(c2nc(-c3nccs3)cs2)N=C1C	2400 nM	
CC1=NN(c2nc(-c3ccccc3)cs2)C(=O)C1=NNc1ccccc1OCCN	2000 nM	anti-leukemic activity (leukemia cells): broad anti-leukemic activity; caspase 3/7 activity [2]: induces dose-responsive caspase 3/7 activity; cell death [2]: cell death in both cell lines; caspase 3/7 activity [3]: induces dose-responsive caspase 3/7 activity; cell death [3]: cell death in both cell lines
CCOc1ccccc1NN=C1C(=O)N(c2nc(-c3ccccc3)c[nH]2)N=C1C	500 nM	

Continued, in another order:

IC50 [1]	SMILES	other results
900 nM	CCOc1ccccc1NN=C1C(=O)N(c2nc(-c3ccccc3)cs2)N=C1c1ccccc1	
100 nM	O=C(O)c1ccccc1NN=C1C(=O)N(c2nc(-c3ccccc3)cs2)N=C1c1ccccc1	
2500 nM	CCOc1ccccc1NN=C1C(=O)N(c2nc(-c3ccccc3)cs2)N=C1c1cccs1	
1700 nM	CC1=NN(c2nc(-c3ccccc3)cs2)C(=O)C1=NNc1ccccc1C(=O)O	
220 nM	O=C(O)c1ccccc1NN=C1C(=O)N(c2nc(-c3ccccc3)cs2)N=C1c1cccs1	
6200 nM	CCOc1ccccc1NN=C1C(=O)N(c2nc(-c3ccccc3)cs2)N=C1CC	

Read-outs that look alike come from different tables or passages of the source.
